The values below come from PubChem BioAssay AID1224863 (Southern Research Institute, 2016).

Chains of the proteins cited; added tags and fusions are not shown. A line that says so, or that is headed by a name, gives the form on record, which may keep a tag or linker.
UniProt P13569, with tags, fused parts or gaps F508del: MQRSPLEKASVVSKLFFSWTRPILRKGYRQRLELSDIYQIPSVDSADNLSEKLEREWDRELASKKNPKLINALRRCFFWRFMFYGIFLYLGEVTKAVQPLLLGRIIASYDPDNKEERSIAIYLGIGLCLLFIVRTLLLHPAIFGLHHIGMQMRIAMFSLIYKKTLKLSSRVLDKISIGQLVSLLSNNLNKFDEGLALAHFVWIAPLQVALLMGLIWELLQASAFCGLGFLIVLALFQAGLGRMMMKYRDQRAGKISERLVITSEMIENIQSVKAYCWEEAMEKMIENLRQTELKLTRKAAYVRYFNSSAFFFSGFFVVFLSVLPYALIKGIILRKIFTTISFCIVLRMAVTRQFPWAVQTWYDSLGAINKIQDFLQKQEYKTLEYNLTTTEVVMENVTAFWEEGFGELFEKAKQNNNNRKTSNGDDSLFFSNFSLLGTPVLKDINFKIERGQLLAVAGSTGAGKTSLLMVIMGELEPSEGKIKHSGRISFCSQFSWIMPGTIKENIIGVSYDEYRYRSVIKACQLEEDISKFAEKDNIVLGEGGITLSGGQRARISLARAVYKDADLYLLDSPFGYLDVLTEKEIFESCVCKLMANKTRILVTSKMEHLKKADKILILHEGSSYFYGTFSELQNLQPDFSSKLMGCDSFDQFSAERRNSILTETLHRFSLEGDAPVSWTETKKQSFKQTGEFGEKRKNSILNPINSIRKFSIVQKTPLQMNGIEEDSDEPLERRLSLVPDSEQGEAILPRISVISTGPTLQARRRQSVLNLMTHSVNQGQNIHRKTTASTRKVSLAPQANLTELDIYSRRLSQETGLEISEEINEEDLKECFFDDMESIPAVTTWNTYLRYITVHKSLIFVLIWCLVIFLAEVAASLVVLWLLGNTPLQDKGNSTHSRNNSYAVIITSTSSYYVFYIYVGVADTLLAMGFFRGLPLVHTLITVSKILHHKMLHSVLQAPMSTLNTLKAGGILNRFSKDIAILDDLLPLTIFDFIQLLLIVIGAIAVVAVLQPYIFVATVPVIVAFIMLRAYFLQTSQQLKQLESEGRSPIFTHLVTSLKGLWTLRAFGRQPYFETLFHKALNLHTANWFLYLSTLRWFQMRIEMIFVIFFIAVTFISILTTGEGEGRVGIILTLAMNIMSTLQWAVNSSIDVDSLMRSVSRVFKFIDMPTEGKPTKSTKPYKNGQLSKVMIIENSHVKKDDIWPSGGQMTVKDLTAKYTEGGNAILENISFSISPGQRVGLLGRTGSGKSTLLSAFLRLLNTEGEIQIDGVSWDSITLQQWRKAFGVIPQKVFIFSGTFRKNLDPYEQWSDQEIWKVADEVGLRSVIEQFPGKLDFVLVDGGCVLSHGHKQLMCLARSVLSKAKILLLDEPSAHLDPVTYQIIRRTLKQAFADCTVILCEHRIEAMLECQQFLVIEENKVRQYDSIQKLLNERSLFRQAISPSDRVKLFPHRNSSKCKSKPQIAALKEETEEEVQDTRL

Only a part is listed here, and it is no random draw. The source made the active and inactive calls.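 Rule for the calls: active = highest signal at least 8 times that of the reference protease inhibitor control at some dose; inactive = the rest.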

For this assay, the target named is Cystic fibrosis transmembrane conductance regulator (Homo sapiens) (UniProt P13569). Put plainly: total CFTR protein upregulators, primary screen, cell-based, HeLa F508del-CFTR, immunofluorescence, viability (AID 1224863). Particulars: 24 h, library dosed in µg/mL.
On to `CC(C)(C)n1nc(C(=O)NCC2(N3CCOCC3)CCCCC2)cc1C1CC1`, for which the call was inactive. In the case of `Cc1cc(C(=O)NCC2(N3CCOCC3)CCCCC2)c(C)o1` it was “inactive”.
